The record followed here is ChEMBL document CHEMBL1122429, “In vitro and in vivo protection of acetylcholinesterase against organophosphate poisoning by pretreatment with a novel derivative of 1,3,2-dioxaphosphorinane 2-oxide” (1983).

Chains of the proteins cited; added tags and fusions are not shown. Residues count along the entry.
UniProt Q03311, 30-603 limits assumed, entry inferred from the test as described: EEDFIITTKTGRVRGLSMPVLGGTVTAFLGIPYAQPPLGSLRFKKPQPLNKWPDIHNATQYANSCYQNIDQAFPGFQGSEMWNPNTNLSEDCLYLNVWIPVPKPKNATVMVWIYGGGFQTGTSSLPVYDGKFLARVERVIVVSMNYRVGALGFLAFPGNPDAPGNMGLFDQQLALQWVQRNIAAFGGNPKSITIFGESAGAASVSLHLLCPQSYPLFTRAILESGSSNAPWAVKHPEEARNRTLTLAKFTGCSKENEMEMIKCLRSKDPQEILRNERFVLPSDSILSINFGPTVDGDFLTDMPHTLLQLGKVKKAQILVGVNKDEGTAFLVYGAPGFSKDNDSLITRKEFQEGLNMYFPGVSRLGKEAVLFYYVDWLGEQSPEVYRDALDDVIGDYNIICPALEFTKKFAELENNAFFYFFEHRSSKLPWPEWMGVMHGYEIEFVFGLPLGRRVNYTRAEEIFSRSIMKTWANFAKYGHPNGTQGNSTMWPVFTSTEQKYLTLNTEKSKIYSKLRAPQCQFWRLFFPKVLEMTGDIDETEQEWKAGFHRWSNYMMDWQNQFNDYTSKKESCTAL
UniProt O42275, 24-633 limits assumed: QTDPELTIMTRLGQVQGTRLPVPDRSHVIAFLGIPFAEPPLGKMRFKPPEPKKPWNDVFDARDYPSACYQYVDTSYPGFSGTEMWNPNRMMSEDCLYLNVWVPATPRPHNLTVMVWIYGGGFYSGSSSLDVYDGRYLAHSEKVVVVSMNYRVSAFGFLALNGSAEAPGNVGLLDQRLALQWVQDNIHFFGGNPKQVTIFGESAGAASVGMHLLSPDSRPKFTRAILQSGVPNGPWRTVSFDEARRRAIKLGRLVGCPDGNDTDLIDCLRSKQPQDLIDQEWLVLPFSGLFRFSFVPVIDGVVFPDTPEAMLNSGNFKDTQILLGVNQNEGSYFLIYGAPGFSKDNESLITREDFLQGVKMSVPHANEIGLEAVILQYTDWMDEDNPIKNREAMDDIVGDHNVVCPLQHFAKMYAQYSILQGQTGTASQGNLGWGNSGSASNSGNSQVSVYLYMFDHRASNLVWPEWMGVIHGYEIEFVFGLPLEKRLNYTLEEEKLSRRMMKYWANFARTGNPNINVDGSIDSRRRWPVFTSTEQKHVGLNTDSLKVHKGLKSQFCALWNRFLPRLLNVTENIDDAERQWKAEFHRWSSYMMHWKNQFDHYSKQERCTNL
UniProt P81908, whole entry, entry inferred from the test as described: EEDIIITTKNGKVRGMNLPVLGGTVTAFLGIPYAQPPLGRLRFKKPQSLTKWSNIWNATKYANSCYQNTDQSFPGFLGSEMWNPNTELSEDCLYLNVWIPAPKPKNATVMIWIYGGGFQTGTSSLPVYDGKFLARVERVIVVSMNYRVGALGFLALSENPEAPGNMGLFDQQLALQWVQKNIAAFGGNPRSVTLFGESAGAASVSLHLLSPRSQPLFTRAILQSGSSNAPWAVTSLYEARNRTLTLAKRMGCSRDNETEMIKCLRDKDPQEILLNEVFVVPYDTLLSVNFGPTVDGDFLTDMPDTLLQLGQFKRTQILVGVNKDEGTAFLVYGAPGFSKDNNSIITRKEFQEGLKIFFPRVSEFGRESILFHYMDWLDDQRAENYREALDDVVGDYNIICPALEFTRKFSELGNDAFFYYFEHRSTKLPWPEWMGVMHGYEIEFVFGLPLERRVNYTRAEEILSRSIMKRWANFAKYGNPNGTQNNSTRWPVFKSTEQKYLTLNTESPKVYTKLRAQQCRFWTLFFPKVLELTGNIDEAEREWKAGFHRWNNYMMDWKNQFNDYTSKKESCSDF
UniProt P37136, 32-614 limits assumed: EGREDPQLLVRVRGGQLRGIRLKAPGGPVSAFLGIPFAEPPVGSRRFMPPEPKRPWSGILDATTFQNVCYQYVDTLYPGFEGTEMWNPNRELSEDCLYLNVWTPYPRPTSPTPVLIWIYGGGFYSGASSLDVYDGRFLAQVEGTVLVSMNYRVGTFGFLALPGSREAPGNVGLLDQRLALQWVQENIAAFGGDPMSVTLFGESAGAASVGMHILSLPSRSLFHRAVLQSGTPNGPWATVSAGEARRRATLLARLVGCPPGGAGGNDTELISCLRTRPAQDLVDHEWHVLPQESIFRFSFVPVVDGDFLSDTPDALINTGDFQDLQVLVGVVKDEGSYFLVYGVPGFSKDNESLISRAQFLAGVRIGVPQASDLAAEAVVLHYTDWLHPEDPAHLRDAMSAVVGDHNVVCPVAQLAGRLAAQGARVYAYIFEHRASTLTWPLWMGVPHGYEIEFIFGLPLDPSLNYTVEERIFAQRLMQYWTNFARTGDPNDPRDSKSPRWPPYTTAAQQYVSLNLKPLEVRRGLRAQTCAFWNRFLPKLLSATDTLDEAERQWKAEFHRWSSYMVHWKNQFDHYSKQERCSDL

Experiment [1] addresses Unchecked (UniProt Q03311). Briefly: Ratio of pseudo first order rate constant to that of inhibitory constant of compound in inhibition of mouse serum butyrylcholinesterase.
In experiment [2] the target is Unchecked (UniProt O42275). Briefly: Ratio of pseudo first order rate constant to that of inhibitory constant of compound in inhibition of eel acetylcholinesterase.
The target of experiment [3] is Unchecked (UniProt P81908). The experiment is described as follows: Ratio of pseudo first order rate constant to that of inhibitory constant of compound in inhibition of horse serum butyrylcholinesterase.
In experiment [4] the target is Unchecked (UniProt P37136). Briefly: Ratio of pseudo first order rate constant to that of inhibitory constant of compound in inhibition of rat brain acetylcholinesterase.
A short description of experiment [5]: Protective ratio of compound (10 mg/kg) against soman poisoning, given subcutaneously to mice 30 min prior to treatment by TAB.
In experiment [6] the target is Acetylcholinesterase (Rattus norvegicus, UniProt P37136). The experiment is described as follows: Inhibitory constant against rat brain acetylcholinesterase at pH 7.0.
Experiment [7] deals with Acetylcholinesterase (Electrophorus electricus, UniProt O42275). The experiment is described as follows: Inhibitory constant against eel acetylcholinesterase at pH 7.0.

For the compound `C[N+](C)(C)c1cccc(OP2(=O)OCCCO2)c1.[I-]`, the Ki in experiment [1] was 122 M⁻¹ s⁻¹; in experiment [2], 140 M⁻¹ s⁻¹; in experiment [3], 300 M⁻¹ s⁻¹; in experiment [4], 107 M⁻¹ s⁻¹.
Consider `CN(C)C(=O)Oc1ccc[n+](C)c1.[Br-]`, for which, in experiment [5], the Protective ratio turned out to be 3.1.
In the case of `C[N+](C)(C)c1cccc(O)c1.[I-]`, the Protective ratio in experiment [5] is below 2.
As to `C[N+](C)(C)c1cccc(OP2(=O)OCCCO2)c1`, the figures for the Ki in experiment [6] and in experiment [7] were 31 µM and 13 µM, respectively.
